Experimental data: PubChem BioAssay AID540317 (National Center for Advancing Translational Sciences (NCATS), 2011)
Out of some 390,000 compounds screened, about 2,200 (0.56%) were called active. The source calls these results inconclusive, neither active nor inactive. The call rests on the fitted dose curve; in most records, active means well fitted inhibition curve with a large enough effect; inconclusive means small, poorly fitted or top-dose-only effect; inactive means no such curve, though single readings can be large or run the other way.
Further: nearly all actives have a fitted effect of over 70% in size.
Potency means the concentration at half of the fitted maximal effect.

Amino acid sequences for entries named in this document (tags omitted).
UniProt P83916, whole entry, looked up: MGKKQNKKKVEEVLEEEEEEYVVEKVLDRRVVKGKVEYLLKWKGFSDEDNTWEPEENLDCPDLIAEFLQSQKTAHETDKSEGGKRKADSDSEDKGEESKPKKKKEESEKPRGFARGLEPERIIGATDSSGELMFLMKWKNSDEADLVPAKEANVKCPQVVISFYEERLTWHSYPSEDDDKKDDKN

These molecules were tested against Chromobox protein homolog 1 (Homo sapiens) (UniProt P83916) (assay: HTS for Inhibitors of HP1-beta Chromodomain Interactions with Methylated Histone Tails). Conditions: AlphaScreen HP1-beta / biotin-H3K9me3 peptide binding.
For `Cc1ccc(NCCc2c([N+](=O)[O-])cc([N+](=O)[O-])cc2[N+](=O)[O-])cc1`, the Potency was inconclusive: 25.1 µM.
In the case of `O=[N+]([O-])c1ccc(-c2cc([N+](=O)[O-])c(O)c([N+](=O)[O-])c2)cc1`, the Potency is reported as inconclusive: 35.5 µM.
With `O=[N+]([O-])c1cc(Oc2ccc([N+](=O)[O-])cc2C(F)(F)F)cc([N+](=O)[O-])c1` the Potency was inconclusive: 15.8 µM.
In the case of `Cc1cc(SC(NC(=O)c2ccccc2)C(Cl)(Cl)Cl)nc(C(C)C)n1` (centres undefined), the Potency is reported as inconclusive: 17.8 µM.
With `CC(C)(C)C(=O)NC(Sc1ccncn1)C(Cl)(Cl)Cl` (centres undefined) the Potency was inconclusive: 70.8 µM.
In the case of `O=[N+]([O-])c1cc([N+](=O)[O-])c(CCNc2ccccc2)c([N+](=O)[O-])c1`, the Potency is reported as inconclusive: 35.5 µM.
`Cc1cc(SC(NC(=O)c2ccc(F)cc2)C(Cl)(Cl)Cl)ncn1` (centres undefined) was tested, and the Potency was inconclusive: 22.4 µM.
`O=c1c2cc([N+](=O)[O-])ccc2[nH]c2c([N+](=O)[O-])cc([N+](=O)[O-])cc12` was tested, and the Potency was inconclusive: 14.1 µM.
`O=[N+]([O-])c1ccc(O)c(/C=N/Nc2ccc([N+](=O)[O-])cc2[N+](=O)[O-])c1` was tested, and the Potency was inconclusive: 12.6 µM.
